Assay results from patent US7026328B2, “Heterocyclic compounds which inhibit leukocyte adhesion mediated by α4 integrins” (Elan Pharmaceuticals, Inc., priority 2002, dated 2006).

Amino acid sequences for entries named in this document (tags omitted). Residues count along the entry.
UniProt P13612, 34-1032: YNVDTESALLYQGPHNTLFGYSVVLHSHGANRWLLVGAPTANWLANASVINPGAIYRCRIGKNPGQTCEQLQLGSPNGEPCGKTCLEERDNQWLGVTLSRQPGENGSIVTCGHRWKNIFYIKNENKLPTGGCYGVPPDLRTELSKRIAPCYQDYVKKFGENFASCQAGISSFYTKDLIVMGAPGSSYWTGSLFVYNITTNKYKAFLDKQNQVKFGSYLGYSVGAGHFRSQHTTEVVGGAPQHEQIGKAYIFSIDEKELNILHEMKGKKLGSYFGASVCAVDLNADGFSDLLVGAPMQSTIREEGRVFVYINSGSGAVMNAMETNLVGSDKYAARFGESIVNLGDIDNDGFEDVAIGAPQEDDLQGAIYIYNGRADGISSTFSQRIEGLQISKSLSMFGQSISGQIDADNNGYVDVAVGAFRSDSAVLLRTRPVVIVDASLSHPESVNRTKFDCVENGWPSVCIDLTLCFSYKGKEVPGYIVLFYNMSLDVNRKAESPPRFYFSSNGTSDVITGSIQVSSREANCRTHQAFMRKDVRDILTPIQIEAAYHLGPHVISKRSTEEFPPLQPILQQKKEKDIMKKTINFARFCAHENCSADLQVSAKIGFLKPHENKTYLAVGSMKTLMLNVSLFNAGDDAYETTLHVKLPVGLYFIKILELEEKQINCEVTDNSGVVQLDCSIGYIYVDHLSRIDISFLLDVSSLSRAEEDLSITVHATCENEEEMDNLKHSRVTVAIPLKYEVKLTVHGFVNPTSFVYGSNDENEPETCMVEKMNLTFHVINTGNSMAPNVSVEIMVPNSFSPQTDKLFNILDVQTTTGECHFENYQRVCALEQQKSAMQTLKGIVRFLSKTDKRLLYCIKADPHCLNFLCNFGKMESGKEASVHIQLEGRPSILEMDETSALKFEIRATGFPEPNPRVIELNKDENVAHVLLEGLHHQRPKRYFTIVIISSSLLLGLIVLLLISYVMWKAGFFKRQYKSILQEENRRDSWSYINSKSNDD

Molecular target: T1, α4β1 integrin (Homo sapiens, UniProt P05556+P13612)
T1 construct: Jurkat™ cells (maintained in log phase growth) were labeled with Calcein AM; endogenous in cells; host or cells: Jurkat cells
Assay: α4β1 Integrin Adhesion Assay: Jurkat Cell Adhesion to Human Plasma Fibronectin
Assay type: cell-based
Conditions: Jurkat cells
Protocol: 96 well plates (Costar 3590 EIA plates) were coated with human fibronectin (Gibco/BRL, cat #33016–023) at a concentration of 10 μg/mL overnight at 4° C. The plates were then blocked with a solution of bovine serum albumin (BSA; 0.3%) in saline. Jurkat™ cells (maintained in log phase growth) were labeled with Calcein AM according to the manufacturer's instructions, and suspended at a concentration of 2×10^6 cells/mL in Hepes/Saline/BSA. The cells were then exposed to test and control compounds for 30 minutes at room temperature before transfer to individual wells of the fibronectin coated plate. Adhesion was allowed to occur for 35 minutes at 37° C. The wells were then washed by gentle aspiration and pipetting with fresh saline. Fluorescence associated with the remaining adherent cells was quantified using a fluorescence plate reader at EX 485/EM 530. […]
The cell staining was accomplished by first harvesting the log-phase Jurkat™ cells by centrifugation in 50 mL tubes (1100 rpm for 5 minutes). […] The volume was brought to 50 mL with Hepes/Saline buffer and the cells were counted, spun, and resuspend to 2×10^6 cells/mL in Hepes/Saline buffer or human serum. […]
Fibronectin adhesion was measured using a fluorescent plate reader at EX 485/EM 530 after the following work up procedure. […]

IC50 (containing human serum): 1730 nM
IC50 (without the human serum): 98.6 nM
Compound: C#CCN(c1cnc(N(CC)CC)nc1N[C@@H](Cc1ccc(OC(=O)N2CCCC2)cc1)C(=O)O)S(=O)(=O)c1ccc(F)cc1 [Example 15, N-(2-[N′,N′-diethylamino]-5-[N″-(4-fluorophenylsulfonyl)-N″-propargylamino]pyrimidin-4-yl)-4′-(pyrrolidin-1-ylcarbonyloxy)-L-phenylalanine]
